Emax and Activity data for 2 compounds are collected here from ChEMBL document CHEMBL5380877, “Azulene as a biphenyl mimetic in orexin/hypocretin receptor agonists” (Bioorg Med Chem, 2023).

By UniProt entry, the sequences of proteins in these tests, tags left out.
UniProt O43613, whole entry: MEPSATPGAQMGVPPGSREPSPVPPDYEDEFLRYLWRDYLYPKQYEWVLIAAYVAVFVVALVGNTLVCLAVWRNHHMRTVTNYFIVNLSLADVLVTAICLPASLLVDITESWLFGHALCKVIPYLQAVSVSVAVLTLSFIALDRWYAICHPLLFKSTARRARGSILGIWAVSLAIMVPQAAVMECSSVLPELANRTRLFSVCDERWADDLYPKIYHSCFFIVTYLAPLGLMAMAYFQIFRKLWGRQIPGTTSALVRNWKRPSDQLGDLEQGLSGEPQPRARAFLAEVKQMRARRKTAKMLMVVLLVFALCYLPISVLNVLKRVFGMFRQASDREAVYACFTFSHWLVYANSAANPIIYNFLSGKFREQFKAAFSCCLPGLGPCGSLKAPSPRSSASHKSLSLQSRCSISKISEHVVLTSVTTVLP

The target of assay [1] is T1, Orexin/Hypocretin receptor type 1 (Homo sapiens, UniProt O43613). Briefly: Agonist activity at human OX1 receptor expressed in CHO-K1 cells assessed as increase in intracellular Ca2+ level at 10 uM incubated for 24 hrs by FLIPR calcium 4 assay relative to orexin-A. Type of assay: functional, cell-based.
The target in assay [2] is T1, Orexin/Hypocretin receptor type 1. Put plainly: Agonist activity at human OX1 receptor expressed in CHO cells assessed as increase in orexin-A induced Ca2+ accumulation level at 10 uM incubated for 24 hrs by FLIPR calcium 4 assay. Type of assay: functional, cell-based. Particulars: filed as agonist.

Activity calls are given as the source filed them. No cut-off for these calls is given here.

`Cc1ccc2c(C(=O)N(C)C)cc(S(=O)(=O)Nc3cccc(NCCNC(=O)c4cccc(C)c4)c3)c-2cc1`: the Emax in assay [1] (filed as agonist) amounted to 80%. Moreover, the result in assay [2] was Active.

Regarding `Cc1cccc(C(=O)NCCNc2cccc(NS(=O)(=O)c3cc(C(=O)N(C)C)c4ccc(C(=O)N(C)C)ccc3-4)c2)c1`, the maximal effect (Emax) in assay [1] was 11%.

A word on the Emax: it is the maximal effect, on the per cent scale that the assay sets.
